The results in this text go back to BindingDB's records for doi:10.1021/jm701457j (University of Maryland, 2008).

Amino acid sequences for entries named in this document (tags omitted). A change or cut given only in a name is not applied to a line headed by its entry.
UniProt P41145: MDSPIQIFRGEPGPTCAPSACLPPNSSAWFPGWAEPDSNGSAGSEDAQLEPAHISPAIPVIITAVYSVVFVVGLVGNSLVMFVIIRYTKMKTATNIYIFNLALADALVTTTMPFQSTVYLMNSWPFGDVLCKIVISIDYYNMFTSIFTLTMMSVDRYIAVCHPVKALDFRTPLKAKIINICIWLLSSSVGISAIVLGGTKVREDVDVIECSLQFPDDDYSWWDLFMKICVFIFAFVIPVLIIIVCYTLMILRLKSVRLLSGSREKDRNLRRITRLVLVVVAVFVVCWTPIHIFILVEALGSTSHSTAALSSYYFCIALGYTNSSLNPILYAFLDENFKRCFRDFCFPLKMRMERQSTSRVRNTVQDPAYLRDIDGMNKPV

Structures are written as SMILES.

This assay has as its target Kappa-type opioid receptor (Homo sapiens, UniProt P41145).

One may read the Ki as the equilibrium dissociation constant of an inhibitor or competing ligand from its target. Read a high Ki as lower affinity. Regarding `COc1ccc2c3c1OC1C(O)C=CC4C(C2)N(C)CCC341` (stereo unspecified) [NSC_223652], the Ki is above 10 µM.
